Earlier results in patent US12102684B2, “Methods of making and using polyphenols complexed with a protein, peptide, amino acid, polysaccharide, disaccharide, or monosaccharide” (priority 2016, dated 2024).

For epigallocatechin-3-gallate [EGCG], the ethanol solubility (ethanol) is given as 20 mg/mL and the water solubility (water) is given as 5 mg/mL.
